Measurements from ChEMBL document CHEMBL3804825, “Synthesis, structure-activity relationships, and biological evaluation of a series of benzamides as potential multireceptor antipsychotics” (Bioorg Med Chem Lett, 2016).

Protein sequences, listed by entry. Tags and fused reporters are not part of them.
UniProt P14416, whole entry: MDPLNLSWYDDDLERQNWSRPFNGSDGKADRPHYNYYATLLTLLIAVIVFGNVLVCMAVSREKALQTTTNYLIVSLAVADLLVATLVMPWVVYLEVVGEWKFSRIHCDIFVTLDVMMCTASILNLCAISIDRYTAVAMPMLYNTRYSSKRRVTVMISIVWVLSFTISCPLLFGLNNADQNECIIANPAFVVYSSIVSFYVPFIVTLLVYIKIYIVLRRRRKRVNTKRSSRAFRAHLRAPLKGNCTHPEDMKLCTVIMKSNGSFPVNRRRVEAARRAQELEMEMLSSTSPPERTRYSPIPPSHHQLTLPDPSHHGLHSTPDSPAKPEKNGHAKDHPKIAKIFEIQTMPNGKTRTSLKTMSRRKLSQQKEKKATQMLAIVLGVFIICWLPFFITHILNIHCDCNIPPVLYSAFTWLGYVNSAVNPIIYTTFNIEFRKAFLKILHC

Biological target: D(2) dopamine receptor (Homo sapiens, UniProt P14416)
Experiment: Antagonistic activity at human dopamine D2 receptor measured after 60 mins by Ultra Lance cAMP assay
Assay type: functional

NC(=O)c1cccc(OCCCCN2CCN(c3cccc(Cl)c3Cl)CC2)c1
IC50: 55 nM
